# In patent US20240199612A1, “IMIDAZOPYRIDINYL INHIBITORS OF PLASMA KALLIKREIN” (SHIRE HUMAN GENETIC THERAPIES, INC., priority 2021, published 2024):
# The chains behind the UniProt entries cited, without tags or fusion partners. Residues count along the entry.
# UniProt P03952, 391-638 limits assumed: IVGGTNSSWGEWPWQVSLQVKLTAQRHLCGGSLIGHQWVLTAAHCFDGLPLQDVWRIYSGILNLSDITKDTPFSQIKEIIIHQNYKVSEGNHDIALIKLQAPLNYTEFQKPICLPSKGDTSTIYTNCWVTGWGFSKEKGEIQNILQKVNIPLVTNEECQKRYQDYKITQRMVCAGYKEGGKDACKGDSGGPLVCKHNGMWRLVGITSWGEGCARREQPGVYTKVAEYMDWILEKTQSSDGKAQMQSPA
# UniProt P03952, 20-390 partner limits assumed: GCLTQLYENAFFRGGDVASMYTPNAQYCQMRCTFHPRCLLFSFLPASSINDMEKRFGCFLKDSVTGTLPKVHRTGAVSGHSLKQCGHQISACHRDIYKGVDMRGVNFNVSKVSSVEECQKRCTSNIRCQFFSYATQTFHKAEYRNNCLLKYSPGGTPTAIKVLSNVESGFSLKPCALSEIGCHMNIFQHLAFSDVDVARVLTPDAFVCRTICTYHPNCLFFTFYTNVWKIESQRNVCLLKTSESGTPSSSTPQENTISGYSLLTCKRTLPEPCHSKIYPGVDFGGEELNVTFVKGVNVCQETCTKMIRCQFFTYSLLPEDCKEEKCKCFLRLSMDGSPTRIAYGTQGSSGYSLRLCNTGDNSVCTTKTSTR
# Molecular target: human activated kallikrein enzyme (Homo sapiens, UniProt P03952)
# Assay: Inhibition of human activated plasma kallikrein, fluorogenic peptide substrate (PFR-AMC) assay, 500 pM enzyme format
# Conditions: read-out: Primary Dose Response Assay: Average EC50; format with 500 pM activated kallikrein, 300 uM PFR-AMC, 30 min preincubation, 10 min reaction, room temperature
smiles,measurement,value
O=C(Nc1nccc2c1cnn2Cc1cn2cc(C3CC3)ccc2n1)OCc1cccc(Cl)c1,EC50,> 9 µM
